Results as given in patent US20060154990A1, “Use of MEK inhibitors in treating abnormal cell growth” (AGOURON PHARMACEUTICALS, INC., priority 2004, published 2006).

Test: Plasma pharmacokinetics after multiple oral doses in advanced cancer patients
Details: fasting, 1 mg QD or BID - 30 mg BID

O=C(NOC[C@H](O)CO)c1ccc(F)c(F)c1Nc1ccc(I)cc1F [Compound 1, N-[(R)-2,3-dihydroxy-propoxy]-3,4-difluoro-2-(2-fluoro-4-iodo-phenylamino)-benzamide]
dose proportionality of Cmax and AUC: roughly dose proportional
